Values quoted from earlier work, collected in patent publication US7452717B2 (dated 2008).

Tested on: human carboxylesterase
Settings: in patients; cited from earlier work

## CCc1c2c(nc3ccc(OC(=O)N4CCC(N5CCCCC5)CC4)cc13)-c1cc3c(c(=O)n1C2)COC(=O)[C@]3(O)CC [CPT-11, 7-ethyl-10-[4-(1-piperidino)-1-piperidino]carbonyloxycamptothecin]
  prodrug metabolized to SN-38: less than 5%
